According to patent US8058462B2, “Ligand modified poly oxo-hydroxy metal ion materials, their uses and processes for their preparation” (Medical Research Council, priority 2007, dated 2011):

Assay: In vitro gastrointestinal digestion assay (simulated stomach and duodenum)
Type: physicochemical
Procedure: An amount of the solid ligand-modified poly oxo-hydroxy ferric iron materials or control iron materials namely ferrous sulphate, ferric chloride, or unmodified ferric oxo-hydroxide, equivalent to 60 mg elemental iron, were added to a synthetic gastric (stomach) solution (50 mL of 2 g/L NaCl, 0.15 M HCl and 0.3 mg/mL porcine pepsin) and incubated at 37° C. for 30 minutes with radial shaking. […] The mixture was incubated at 37° C. for 60 min with radial shaking. Homogeneous Aliquots (1 mL) were collected at different time points during the process and centrifuged at 13,000 rpm for 10 minutes to separate the aggregate and aquated phases. The supernatant was analysed for iron content by ICPOES. […] The mass of remaining material (i.e. the wet pellet) was recorded. Concentrated HNO3 was added to this wet pellet and the new mass recorded. […] The starting amount of iron was calculated from the iron in the wet pellet plus the iron in the supernatant. To differentiate between soluble iron and aquated particulate iron in the supernatant, at each time point, this fraction was also ultrafiltered (Vivaspin 3,000 Da molecular weight cut-off polyethersulfone membrane, Sartorius Stedium Biotech GmbH, Goettingen, Germany) and again analysed by ICPOES. […]

Substance: ferric pyrophosphate
- disaggregation under gastric and intestinal conditions (in words): failed to disaggregate properly
